# Only a part of the results on these compounds is given; other tests are left out.
# What was measured:
# [1] = tested on: ryegrass white clover pasture; experiment: Field study, pasture colour and legume damage; details: 250 L/ha; assessed 4.5 hrs, 48 hours and 4 days after application; FIG. 2
# [2] = pH of petri-dish test solutions after mixing and after 24 hours; assay type: physicochemical
substance,measurement,setting,value
ammonium nitrate,impact on pasture colour and legume damage,[1],greater impact on pasture colour and legume leaf health than calcium hydroxide
same,pH 24,[2]; solution after 24 hours,5.7
same,pH 0,[2]; solution immediately after mixing (0 hours),5.9
